Measurements published in patent publication US20240299360A1, “ADAMTS INHIBITORS, PREPARATION METHODS AND MEDICINAL USES THEREOF” (Jiangsu Hengrui Pharmaceuticals Co., Ltd., priority 2020, published 2024).

The chains behind the UniProt entries cited, without tags or fusion partners. Residues count along the entry.
UniProt O75173, 213-685 limits assumed: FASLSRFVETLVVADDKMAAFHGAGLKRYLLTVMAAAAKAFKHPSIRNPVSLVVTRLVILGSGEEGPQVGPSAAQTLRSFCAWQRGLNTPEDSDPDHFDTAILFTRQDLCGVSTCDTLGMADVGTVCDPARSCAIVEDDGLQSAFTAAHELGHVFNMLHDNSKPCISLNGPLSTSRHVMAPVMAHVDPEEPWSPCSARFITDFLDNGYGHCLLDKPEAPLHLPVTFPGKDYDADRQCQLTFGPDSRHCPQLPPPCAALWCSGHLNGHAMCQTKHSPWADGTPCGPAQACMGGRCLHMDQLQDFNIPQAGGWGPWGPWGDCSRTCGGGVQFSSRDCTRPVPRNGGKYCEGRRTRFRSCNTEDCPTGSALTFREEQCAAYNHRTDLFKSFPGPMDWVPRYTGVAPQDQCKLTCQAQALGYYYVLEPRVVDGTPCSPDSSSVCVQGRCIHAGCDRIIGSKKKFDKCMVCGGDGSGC
UniProt Q9UNA0, 262-622 limits assumed: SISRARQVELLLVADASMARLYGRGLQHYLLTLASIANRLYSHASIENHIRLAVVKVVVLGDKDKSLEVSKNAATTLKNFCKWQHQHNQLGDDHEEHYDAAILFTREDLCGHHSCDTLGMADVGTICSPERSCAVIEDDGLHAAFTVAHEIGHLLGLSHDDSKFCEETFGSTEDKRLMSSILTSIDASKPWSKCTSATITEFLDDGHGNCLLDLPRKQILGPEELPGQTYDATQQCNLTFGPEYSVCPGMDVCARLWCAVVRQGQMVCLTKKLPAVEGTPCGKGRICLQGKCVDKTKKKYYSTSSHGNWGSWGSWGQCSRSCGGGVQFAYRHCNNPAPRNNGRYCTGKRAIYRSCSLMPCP

Assays:
[1] = target: ADAMTS-4 recombinant protein (Homo sapiens (Human), UniProt O75173); assay: In vitro fluorescence (FRET-peptide) enzymatic assay of ADAMTS-4 activity; conditions: read-out: ADAMTS-4 (IC50); FRET peptide substrate 15 μM, 10 nM enzyme, 37° C. 3 hours
Description: (§1) A FRET (fluorescence resonance energy transfer) peptide was cleaved by recombinant ADAMTS-4 or ADAMTS-5 proteins into two separate fragments resulting in an increase of fluorescence signal which was quantified. The peptide was 5-FAM-TEGEARGSVILLK(5-TAMRA)K-NH2, customized from ANASPEC. ADAMTS-4 recombinant protein (catalog #4307-AD) and ADAMTS-5 recombinant protein (catalog #2198-AD) were purchased from R&D Systems.
(§2) An assay buffer containing 50 mM HEPES pH 7.5, 100 mM NaCl, 5 mM CaCl2, 0.1% CHAPS and 5% Glycerol was prepared. A volume of 2.5 μl of compound in the assay buffer was dispensed to a 384-well plate, and 2.5 μl of ADAMTS-4 or ADAMTS-5 protein (final concentration in the reaction was 10 nM) was added. The compounds and proteins were pre-incubated at room temperature for 15 minutes. Then, 5 μl of substrate was added to each well. The final substrate concentrations for ADAMTS-4 and ADAMTS-5 were 15 μM and 8 μM, respectively. The fluorescence signal in each well was determined, after incubation at 37° C. for 3 hours, on a TECAN plate reader (Excitation, 490 nm; Emission, 520 nm).
(§3) The data was inputted into GraphPad Prism, and the IC50 values were calculated using function “log (inhibitor) vs. response—Variable slope (four parameters)”. (See Table 1)

[2] = target: T1, ADAMTS-5 recombinant protein (Homo sapiens (Human), UniProt Q9UNA0); assay: In vitro fluorescence (FRET-peptide) enzymatic assay of ADAMTS-5 activity; conditions: read-out: ADAMTS-5 (IC50); FRET peptide substrate 8 μM, 10 nM enzyme, 37° C. 3 hours
Description: as §1, §2, §3

[3] = target: T1, ADAMTS-5 recombinant protein; assay: In vitro ELISA of ADAMTS-5 activity (Aggrecan-IGD enzymatic assay); conditions: read-out: ADAMTS-5 (IC50); aggrecan-IGD substrate, ARGSVIL-peptide ELISA, 37° C. 45 minutes
Description: In this assay, the enzymatic activity of recombinant ADAMTS-5 protein (catalog #2198-AD, R&D Systems) was assayed with a protein substrate, the aggrecan IGD protein. The aggrecan IGD protein is a polypeptide connecting human aggrecan globular domains 1 and 2 (T331-G458) expressed in E. Coli with a C-terminal His-tag (catalog #30411000, BIOTEZ). The enzymatic product ARGSVIL-peptide was detected using an ELISA kit from BioTEZ (catalog #30510111).
An assay buffer containing 50 mM HEPES pH 7.5, 100 mM NaCl, 5 mM CaCl2), 0.1% CHAPS and 5% Glycerol was prepared. Recombinant ADAMTS-5 protein was diluted to 0.3 nM in the assay buffer. Ten μl of […] and 10 μl of compound solution was transferred to each well of a 96-well plate and incubated at room temperature for 15 minutes. Substrate aggrecan-IGD was diluted to 100 nM with the assay buffer and 20 μl was added to each well. The plate was incubated at 37° C. for 45 minutes. After incubation, the newly generated epitope ARGSVIL-peptides were measured using the Aggrecanase Activity ELISA Assay Kit following the manufacturer's instructions. Then, 100 μl of stop solution was added and the absorbance of each well was read at 450 nm, using […] as reference on a TECAN plate reader.
A standard curve of the ELISA assay was generated in GraphPad Prism using Sigmoidal 4PL function and the corresponding peptide concentrations were calculated based on the standard curve. The IC50 values were calculated using function “log (inhibitor) vs. response—Variable slope (four parameters)”. (See Table 2).

[4] = system: mouse femoral head cartilage; assay: Mouse explant assay (IL-1α induced GAG release); conditions: inhibition of GAG release, IL-1α 1 ng/ml, 72 hours; for Inhibition % at 2 μM: compound 2 μM; for Inhibition % at 20 μM: compound 20 μM
Description: In this assay, fresh mouse femoral head cartilage was treated with IL-1α protein (Sigma-Aldrich, catalog #12778) in culture media, which induces the cartilage catabolism. Then, the GAGs attached to the cleaved aggrecan fragments (released in the media) and the GAGs attached to the intact aggrecan were measured by dimethylmethylene blue dye in the Glycosaminoglycans Assay Kit (Chondrex, catalog #6022).
Femoral head cartilage samples were isolated from mice (25 days old, male, C57BL/6, from Charles River Lab) and put into 2.0 ml tubes filled-up with media (DMEM, 10% FBS, 4 mM Glutamine, penicillin-streptomycin, 20 mM HEPES). Two hundred μl of media without FBS was added to each well of a 48-well plate, and one piece of cartilage was transferred to a well in the plate. Then the media was aspirated, and compounds and IL-1α protein were added to the plate in a total volume of 400 μl of fresh media without FBS. The final concentration of IL-1α was 1 ng/ml. The plate was incubated at 37° C. for 72 hours in a humidified incubator with 5% CO2 supply.
The supernatant was transferred to a 1.5 ml tube and kept at −20° C. Each cartilage sample was transferred to another 1.5 ml tube containing 400 μl of freshly made papain solution. The papain solution contained 125 μg/ml papain (Sigma-Aldrich, catalog #P3125), 0.1 M sodium acetate (Sigma-Aldrich, catalog #S7899), pH 5.5 and 5 mM EDTA and 5 mM L-cysteine-HCl (Sigma-Aldrich, catalog #C7880). The cartilage samples were kept rocking in a 60° C. water bath for 24 hours. The lysates were vortexed for 10 seconds and spinned at 10,000 rpm for 2 minutes.
Both the supernatant and the lysate samples were diluted with PBS and mixed with 100 μl of dye from the Glycosaminoglycans Assay Kit. The optical density from each well was determined with a TECAN plate reader set to a wavelength of 525 nm.
The concentrations of GAGs in the supernatant and lysates were determined based on the standard curve with a dose range of chondroitin sulfate provided in the kit. The percentage of GAG release was calculated as the following
The test compound effect was expressed as the percent of inhibition using the following formula: […]

| SMILES | IC50 [1] | IC50 [2] | IC50 [3] | Inhibition % at 2 μM [4] | Inhibition % at 20 μM [4] |
| --- | --- | --- | --- | --- | --- |
| CC(C[C@@]1(C2CC2)NC(=O)NC1=O)C(=O)N1Cc2cc(Cl)c(Cl)cc2C1 (mixture of isomers) [Example 34-2, (5S)-5-cyclopropyl-5-(3-(5,6-dichloroisoindolin-2-yl)-2-methyl-3-oxopropyl)imidazolidine-2,4-dione] | 3 nM | 7 nM | 18 nM | 71% | 100% |
| Cn1ccnc1C1(CCC(=O)N2Cc3ccc(C(F)(F)F)cc3C2)NC(=O)NC1=O (single isomer, unassigned) |  |  |  | 27% | 60% |
| CC(C[C@@]1(C2CC2)NC(=O)NC1=O)C(=O)N1Cc2ccc(C(F)(F)F)cc2C1 (single isomer, unassigned) | 8 nM | 9 nM | 19 nM | 46% | 99% |
| Cn1ccnc1C1(CCC(=O)N2Cc3cc(Cl)c(C(F)(F)F)cc3C2)NC(=O)NC1=O (single isomer, unassigned) |  |  |  | 31% | 70% |
| CC1CN(C(=O)CC[C@@]2(C3CC3)NC(=O)NC2=O)CCc2ccc(Cl)c(Cl)c21 (single isomer, unassigned) [compound with shorter retention time in 38-1 and 38-2] | 120 nM | 42 nM | 52 nM |  |  |
| CCC(C[C@@]1(C2CC2)NC(=O)NC1=O)C(=O)N1Cc2ccc(C(F)(F)F)cc2C1 (single isomer, unassigned) | 12 nM | 7.1 nM | 18 nM | 65% | 97% |
| CC1c2cc(C(F)(F)F)c(Cl)cc2CN1C(=O)CC[C@@]1(C2CC2)NC(=O)NC1=O (single isomer, unassigned) | 50 nM |  | 17 nM | 50% | 74% |
| CC(C[C@]1(C2CC2)NC(=O)NC1=O)C(=O)N1Cc2ccc(C(F)(F)F)cc2C1 (single isomer, unassigned) | 12 nM | 9 nM |  |  |  |
| CC1CN(C(=O)CC[C@@]2(C3CC3)NC(=O)NC2=O)CCc2cc(Cl)c(Cl)cc21 (single isomer, unassigned) [compound with shorter retention time in 37-1 and 37-2] | 8 nM | 12 nM |  |  |  |
| CC1CN(C(=O)CC[C@@]2(C3CC3)NC(=O)NC2=O)CCc2ccc(Cl)c(Cl)c21 (single isomer, unassigned) [compound with longer retention time in 38-1 and 38-2] | 330 nM | 110 nM | 220 nM |  |  |
| CC1CN(C(=O)CC[C@@]2(C3CC3)NC(=O)NC2=O)CCc2cc(Cl)c(Cl)cc21 (single isomer, unassigned) [compound with longer retention time in 37-1 and 37-2] | 52 nM | 98 nM |  |  |  |
